Biological target: T1, vWF-degrading protease (Homo sapiens, UniProt Q76LX8)
T1 sequence (Q76LX8 75-1427): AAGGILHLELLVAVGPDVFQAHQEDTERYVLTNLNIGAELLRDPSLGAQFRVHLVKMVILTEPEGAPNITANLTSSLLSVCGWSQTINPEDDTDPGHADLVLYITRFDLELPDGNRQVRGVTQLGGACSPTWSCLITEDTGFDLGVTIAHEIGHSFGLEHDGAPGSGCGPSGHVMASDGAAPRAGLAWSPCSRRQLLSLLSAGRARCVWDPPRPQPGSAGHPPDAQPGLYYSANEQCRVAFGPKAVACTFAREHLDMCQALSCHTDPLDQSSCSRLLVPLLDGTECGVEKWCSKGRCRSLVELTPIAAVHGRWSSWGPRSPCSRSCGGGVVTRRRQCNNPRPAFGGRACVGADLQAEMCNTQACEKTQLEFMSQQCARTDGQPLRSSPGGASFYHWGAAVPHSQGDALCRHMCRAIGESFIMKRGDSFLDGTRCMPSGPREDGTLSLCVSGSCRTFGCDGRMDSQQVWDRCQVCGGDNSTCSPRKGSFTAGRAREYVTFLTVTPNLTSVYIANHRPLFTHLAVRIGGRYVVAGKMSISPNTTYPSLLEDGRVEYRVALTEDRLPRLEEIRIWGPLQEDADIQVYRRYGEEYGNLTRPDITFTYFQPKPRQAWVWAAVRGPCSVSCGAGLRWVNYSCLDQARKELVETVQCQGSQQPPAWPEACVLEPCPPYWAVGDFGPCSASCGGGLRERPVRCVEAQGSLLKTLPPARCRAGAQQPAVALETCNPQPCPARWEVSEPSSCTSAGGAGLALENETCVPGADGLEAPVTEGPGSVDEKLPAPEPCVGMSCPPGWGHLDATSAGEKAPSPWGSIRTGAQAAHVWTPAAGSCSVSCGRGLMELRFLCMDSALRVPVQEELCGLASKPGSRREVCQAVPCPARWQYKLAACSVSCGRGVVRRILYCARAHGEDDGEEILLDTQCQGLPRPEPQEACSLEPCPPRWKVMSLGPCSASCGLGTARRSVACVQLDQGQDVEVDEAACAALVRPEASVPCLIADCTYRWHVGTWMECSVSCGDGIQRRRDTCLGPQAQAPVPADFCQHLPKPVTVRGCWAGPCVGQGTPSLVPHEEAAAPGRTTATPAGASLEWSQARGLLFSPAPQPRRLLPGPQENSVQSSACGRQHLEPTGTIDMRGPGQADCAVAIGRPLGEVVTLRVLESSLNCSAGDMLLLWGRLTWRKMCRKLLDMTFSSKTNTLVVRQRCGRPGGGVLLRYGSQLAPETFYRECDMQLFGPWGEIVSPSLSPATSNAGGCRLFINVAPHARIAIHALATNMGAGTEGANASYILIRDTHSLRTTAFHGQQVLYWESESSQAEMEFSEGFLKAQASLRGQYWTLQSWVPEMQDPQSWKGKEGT
Conditions: 1 M urea, even at physiological salt concentrations, dialysis at 37° C.

SMILES: NC(N)=O [urea]
- effect on vWF degradation: increased markedly
